## Antibody variant affinities, Ab-14 light chain, assay B

Source: Li et al. 2023 (doi:10.1038/s41467-023-39022-2), MIT Lincoln Laboratory and A-Alpha Bio; data file from the FLAb repository.

Target: peptide PDVDLGDISGINAS, taken from heptad repeat 2 (HR2) of SARS-CoV-2 spike.

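The parent was found by panning a naive human phage display library on the peptide. Designed CDR sequences, proposed from the first random library and measured here. Group labels follow the data file (Rand: our label for a block that the file lists under HC and that is probably the random mutants of the ten best first-round binders; En: ensemble of fine-tuned language models; GP: Gaussian process model; HC: hill climbing; Gen: genetic algorithm; Gibbs: Gibbs sampling; a sequence that several methods proposed may carry one label only). The assay is AlphaSeq: two haploid yeast populations carry antibody and antigen on their surface. Mating (16 h, 30 °C) was followed by selection of diploids and sequencing of their barcodes. A regression on co-assayed BCL2-family reference pairs converts the normalised counts of each replicate to an apparent Kd. Mating was done six times.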

Parent: Ab-14, a human scFv built as VH, a (GGGGS)3 linker, VL. Only the CDRs of the light chain vary.
VH: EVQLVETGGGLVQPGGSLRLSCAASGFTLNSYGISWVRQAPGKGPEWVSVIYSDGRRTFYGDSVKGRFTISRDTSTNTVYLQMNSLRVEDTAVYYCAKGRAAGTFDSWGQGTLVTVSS
VL: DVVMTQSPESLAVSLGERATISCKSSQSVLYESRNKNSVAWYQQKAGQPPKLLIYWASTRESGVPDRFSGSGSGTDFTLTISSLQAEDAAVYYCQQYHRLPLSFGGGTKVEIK

Variants are written as CDR1, CDR2 and CDR3 of the light chain (limits as in the source). Parent: KSSQSVLYESRNKNSVA, WASTRES, QQYHRLPLS. This list holds designs with more than six substitutions. Affinities are written as log10 Kd with Kd in nM; a lower number is a better binder. The mean shown is taken over the replicates in which the pair was detected. A pair that was not seen in any replicate is written "not detected"; this usually means weak binding, but a binder can also be missed. As a blank, each scFv also met three strains without target: over all light chain designs, 4% of these pairings were detected, typically at 2.64 and seldom below 1.59. The range of this assay differs from that of the first round, and the authors advise against merging the two. The authors averaged sequences with at least three values out of six and counted those with two or fewer as poor binders.

CDR-L1,CDR-L2,CDR-L3,group,"log10 Kd (nM), mean",seen in
TISQSTYWEQFNKNNVA,QTSTREE,QDYDRLPLS,En_HC,0.76,6 of 6
KIGQQVTYESTNHNAIA,QMTTRES,QQYHRLPLS,En_HC,0.42,6 of 6
NISESMYFQSINKNNIA,EMSTRER,QHYHRLPLS,En_HC,1.49,5 of 6
KIAYQADMYGVQCNNVA,HADIREP,QQYFKLPLN,En_Gibbs,1.72,6 of 6
KLSQSVELQSRNKNAVA,SAQTRES,QQYHRLPLS,GP_Gibbs,0.08,6 of 6
KLLQMVNYGSRALNSVA,QMETRED,QQYHRLPLS,En_HC,2.66,2 of 6
HIDKFNFSEGEKWNAIA,QDATRLQ,QSYQRLPLA,En_Gibbs,2.14,1 of 6
KVSSSVNYGQRNKNSVA,DASQRES,QQYHRLPLS,GP_Gibbs,-0.67,6 of 6
TIGQVMHYESRNKNSVA,QTSTREE,QDYDRLPLS,En_HC,2.73,5 of 6
KVVQSVNGLQRNKNSVA,QASTRES,QQYHRLPLS,GP_Gibbs,0.37,6 of 6
HISMMVGTKGYNKNSVA,NAETREN,QQYHRLPLS,En_HC,1.76,6 of 6
KISMSTTFESRNKNSVA,ENSTRES,QSYHRLPLS,En_HC,3.45,2 of 6
ALGDVTRMESNKKNSIA,DMSTRED,QQYHRLPLS,En_HC,0.00,6 of 6
KQQFSGMMGSRNKNSVA,MASTRES,QQYHRLPLS,GP_Gibbs,2.88,2 of 6
SMFEKEYEELQPEDNIA,DATERMV,QQYFRLPLL,En_Gibbs,1.63,6 of 6
KISQAHNYLSRVMNSVA,DNSTRES,QQYFRLPLS,En_HC,0.30,6 of 6
MLSEFMHMLGAKKNSIA,DLVVRAN,QQYHRLPLI,En_Gen,2.06,5 of 6
SIRAVGCDWQRNHSNIA,DATQIED,QQYVMLPLS,En_Gibbs,0.87,6 of 6
KLSQVTHSESRVKNSIA,EMVTREV,QQYDRLPLS,En_HC,0.78,6 of 6
TISQMTSLFEQSINNVA,EVSTREN,QQYDRLPLA,En_Gen,1.22,6 of 6
KFNMEVGGQNTNKYNIA,AAHQLEY,QTYHRLPLS,En_Gibbs,1.54,5 of 6
MISDLTMYGSVNKNSVA,DLSTRGS,QQYHRLPLS,En_HC,0.04,6 of 6
TLSGHQYNYGQKKNSIA,EDNNRRL,QQYWRLPLS,En_Gibbs,1.25,4 of 6
KLSSFHNLETINKSNVA,EMVTREN,QQYDRLPLS,En_HC,1.91,6 of 6
TISQSVNMTSHGRNSVA,QAEMREA,QQYDRLPLS,En_HC,2.17,1 of 6
HFDQTEQEGIQDKNSVA,QGSQVGS,QHYSKLPLS,En_Gibbs,not detected,0 of 6
MLSDVVEGLRRKHNSVA,DNSTRES,QQYDRLPLS,En_Gen,1.46,6 of 6
KWSCSSLYDDANKNSVA,NASTRLS,QQYHRLPLS,GP_Gibbs,0.34,6 of 6
HITYGMMVAGRHSKSIA,QAETRAK,QQYDRLPLA,En_Gen,1.32,6 of 6
TLTQVQGMMSHNKNSVA,DLSTRGS,QQYHRLPLS,En_HC,0.20,6 of 6
ALQMERLGQKQWQNNIA,NQDIRTA,QQYYMLPLV,En_Gibbs,0.28,6 of 6
KLYMGVDYGDRNKNQVA,HASTRES,QQYHRLPLS,GP_Gibbs,0.19,6 of 6
KLSQSVMFFGHAINSVA,EMETREN,QQYDRLPLS,En_HC,not detected,0 of 6
HISQMWFLESKNKNNVA,EESTRSD,QSYFRLPLS,En_HC,0.23,6 of 6
KLYQNVGTMSHNKQSIA,DMERREQ,QQYHRLPLS,En_HC,0.34,6 of 6
IVSQLMMWGLHAKNSIA,EAETRLN,QQYDRLPLF,En_Gen,2.17,5 of 6
NLVGRAQMQDSGRQAIA,NAHARCT,QQYFHLPLT,En_Gibbs,0.62,6 of 6
KLSQSMLYESRVKNNVA,DASQRES,QMYHRLPLS,GP_Gibbs,1.81,4 of 6
KLMGSMEYESRNKNAVA,EASTRES,QQYHRLPLS,GP_Gibbs,0.00,6 of 6
KFPQSNGYEQRNKNSVA,EASQREQ,QQYHRLPLS,GP_Gibbs,0.32,6 of 6
KHEEWVEYESRNKNSVA,NASTRLS,QQYHRLPLS,GP_Gibbs,-0.31,6 of 6
KLQQFYEGESRNKNSVA,SASTRES,QQYHRLPLS,GP_Gibbs,-0.25,6 of 6
TISQMSTLFSQSINNVA,EVSTRLD,QQYDRLPLA,En_Gen,0.71,6 of 6
KLVMSWGYESRNKNAVA,HASQRCS,QQYHRLPLS,GP_Gibbs,1.17,6 of 6
QITEEQSMRTEGNWNIA,QAEQKVH,QQYNRLPLA,En_Gibbs,0.57,6 of 6
RIQMGDFEGRTAWNSIA,DGEEIYR,QQYVRLPLY,En_Gibbs,1.50,6 of 6
KFMQMVWQESRNKNSVA,NASTRMQ,QQYHRLPLS,GP_Gibbs,0.07,6 of 6
TLYGLSNSMSKEKNNVA,EMSTREN,QQYDRLPLI,En_Gen,1.62,5 of 6
TMNVELIYGVPEMNNVA,AGSQKLA,QQYYRLPLS,En_Gibbs,0.85,6 of 6
KISMLYNYASTNKNSIA,EMTTRED,QHYHRLPLS,En_HC,1.16,6 of 6
KIDSQYQHGTDQKKAMA,DSSVSTQ,QQYSRLPLS,En_Gibbs,0.40,6 of 6
HITYGMMVHGRHGSSIA,QAETRAK,QQYDRLPLI,En_Gen,1.68,6 of 6
MISESAMYESRNRNSVA,DNSTRED,QCYDRLPLS,En_HC,2.11,5 of 6
RLDLSMSYSHEGRRAIA,NADALVI,QQYHRLPLI,En_Gibbs,1.67,2 of 6
KIGMTLNQLYEKANNVA,DLVERVN,QQYHRLPLS,En_Gen,0.23,6 of 6
IISQSMAYESATHNSIA,QTETREE,QQYHHLPLI,En_HC,1.25,6 of 6
EIQWQQYGENAMEAAIA,NEGTRHQ,QQYSRLPLT,En_Gibbs,0.81,6 of 6
KLSQVTHSESRNKNSIA,EMVCREV,QQYDRLPLS,En_HC,2.14,2 of 6
KIGLVTNGISFSKNSVA,EQSTREE,QQYDRLPLS,En_HC,1.83,6 of 6
KITATMRFEQKAKNNIA,EVTTRSK,QQYYRLPLS,En_Gen,0.88,6 of 6
KDSISYLYESRNKNSTA,EASTRES,HQYHRLPLV,Rand,not detected,0 of 6
KLSATYRYESQNKNSIA,EMTTRGS,QCYHRLPLS,En_HC,2.11,6 of 6
KLRMMTLTGGYFKNSVA,QASTREN,QSYHRLPLS,En_HC,1.27,5 of 6
KVSPSWLGEDRNCNSVA,QASCRES,QQYHRLPLS,GP_Gibbs,0.89,6 of 6
MISSVMGINNMYNSSVA,QAEEREQ,QQYDRLPLS,En_Gen,not detected,0 of 6
KLYQSQLYDSRNKNSVA,QASHREV,QQYHRLPLS,GP_Gibbs,0.46,6 of 6
MISQLMNMGQFAINSVA,QAQTRNE,QQYDRLPLI,En_Gen,2.16,4 of 6
MISQLYNMGMFAINSVA,QASLRCN,QQYDRLPLT,En_Gen,2.49,1 of 6
VMQMQNDRMQDAAKNIA,GVDMRET,QQYARLPFM,En_Gibbs,2.06,4 of 6
SVTRYTDENGLKMNSVA,DAAEAMT,QQYHRLPLT,En_Gibbs,0.25,6 of 6
KLYSNVGTMSLNKQSIA,DMERRED,QQYHRLPLS,En_HC,0.02,6 of 6
HLSESVLAQSKMKNSVA,ENSTRES,QQYDRLPLS,En_HC,2.55,4 of 6
MISDLMLYGSRNANPIA,NASTREY,QQYHRLPLS,En_HC,0.15,6 of 6
KLHHYKLGENGMRGSVA,NATIRDQ,QQYFRLPLF,En_Gibbs,0.49,6 of 6
MISQLYNMGQFAINSVA,QAETRCN,QQYFRLPLE,En_Gen,1.57,6 of 6
KQQGGQDYESRNDNSVA,DASTRES,QQYHRLPLS,GP_Gibbs,0.39,6 of 6
KVAQGIFDGKRNSHSIA,EVSELCD,QQYSRLPLE,En_Gibbs,0.25,6 of 6
TLSHSTDLESVHRNNIA,DLMTRES,QQYDRLPLS,En_HC,0.23,6 of 6
KVSGSHDYESRNKNSVA,HASTRCS,QDYHRLPLS,GP_Gibbs,0.50,6 of 6
TLGDVTRMESNKKNSIA,DMSNRAD,QQYHRLPLA,En_HC,-0.20,6 of 6

The opening 8 entries, copied out:

| CDR-L1 | CDR-L2 | CDR-L3 | group | log10 Kd (nM), mean | seen in |
|---|---|---|---|---|---|
| TISQSTYWEQFNKNNVA | QTSTREE | QDYDRLPLS | En_HC | 0.76 | 6 of 6 |
| KIGQQVTYESTNHNAIA | QMTTRES | QQYHRLPLS | En_HC | 0.42 | 6 of 6 |
| NISESMYFQSINKNNIA | EMSTRER | QHYHRLPLS | En_HC | 1.49 | 5 of 6 |
| KIAYQADMYGVQCNNVA | HADIREP | QQYFKLPLN | En_Gibbs | 1.72 | 6 of 6 |
| KLSQSVELQSRNKNAVA | SAQTRES | QQYHRLPLS | GP_Gibbs | 0.08 | 6 of 6 |
| KLLQMVNYGSRALNSVA | QMETRED | QQYHRLPLS | En_HC | 2.66 | 2 of 6 |
| HIDKFNFSEGEKWNAIA | QDATRLQ | QSYQRLPLA | En_Gibbs | 2.14 | 1 of 6 |
| KVSSSVNYGQRNKNSVA | DASQRES | QQYHRLPLS | GP_Gibbs | -0.67 | 6 of 6 |